Experimental data reported in US9598414B2, “Substituted benzo[5,6]azepino[3,2,1-hi]pyrido[4,3-b]indoles and substituted benzo[6,7][1,4]oxazepino[2,3,4-hi]pyrido[4,3-b]indoles for treating CNS disorders” (Daya Drug Discoveries, Inc., priority 2013, dated 2017).

Sequences of proteins named here, by UniProt entry; tags and fusion partners are left off.
UniProt Q99720, whole entry: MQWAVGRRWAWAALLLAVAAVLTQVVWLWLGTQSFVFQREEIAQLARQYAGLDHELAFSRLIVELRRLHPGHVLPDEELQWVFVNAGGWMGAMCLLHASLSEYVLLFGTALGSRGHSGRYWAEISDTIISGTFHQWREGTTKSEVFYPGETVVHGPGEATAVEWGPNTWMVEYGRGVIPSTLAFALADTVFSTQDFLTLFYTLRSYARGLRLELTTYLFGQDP

Target: Sigma σ1 (Homo sapiens, UniProt Q99720)
Experiment: Receptor binding, σ1

Ki: 6.14 µM
SMILES: CN1CCc2c(c3cccc4c3n2-c2ccccc2CC4)C1 [Compound 6a, reference compound]
